Laboratory results from US9783547B2, “Water soluble 4-azapodophyllotoxin analogs” (CENTRE NATIONAL DE LA RECHERCHE SCIENTIFIQUE (CNRS), priority 2014, dated 2017).

Tested on: colon 26 carcinoma
Assay: Antitumor activity in colon 26 carcinoma bearing mice
Settings: 80.6 mg/kg i.p. (text: 80 mg/kg) days 4, 5, 11, 12, 14, 15, hydrochloride

COc1cc(Nc2c3c(nc4cc5c(cc24)OCO5)CCCC3=O)cc(OC)c1OC.Cl [SGR307.HCl, 6,7-(Methylenedioxy)-9-(3,4,5-trimethoxyphenylamino)-3,4-dihydroacridin-1(2H)-one, hydrochloride]
Note (activity / toxicity assessment): toxic | Note (activity / toxicity assessment) (listed as SGR307 HCl): Toxic
